From PubChem BioAssay AID588591 (National Center for Advancing Translational Sciences (NCATS), 2011)
The list shows a part of the results, in another mix than the full data. Records with an inconclusive call do not appear. The source made the active and inactive calls. Calls come from the whole dose curve; as a rule, active = well fitted inhibition curve with a large enough effect; inconclusive = small, poorly fitted or top-dose-only effect, or another doubt; inactive = no such curve, though single readings can be large or run the other way.

Chains of the proteins cited; added tags and fusions are not shown.
UniProt Q9Y253, whole entry: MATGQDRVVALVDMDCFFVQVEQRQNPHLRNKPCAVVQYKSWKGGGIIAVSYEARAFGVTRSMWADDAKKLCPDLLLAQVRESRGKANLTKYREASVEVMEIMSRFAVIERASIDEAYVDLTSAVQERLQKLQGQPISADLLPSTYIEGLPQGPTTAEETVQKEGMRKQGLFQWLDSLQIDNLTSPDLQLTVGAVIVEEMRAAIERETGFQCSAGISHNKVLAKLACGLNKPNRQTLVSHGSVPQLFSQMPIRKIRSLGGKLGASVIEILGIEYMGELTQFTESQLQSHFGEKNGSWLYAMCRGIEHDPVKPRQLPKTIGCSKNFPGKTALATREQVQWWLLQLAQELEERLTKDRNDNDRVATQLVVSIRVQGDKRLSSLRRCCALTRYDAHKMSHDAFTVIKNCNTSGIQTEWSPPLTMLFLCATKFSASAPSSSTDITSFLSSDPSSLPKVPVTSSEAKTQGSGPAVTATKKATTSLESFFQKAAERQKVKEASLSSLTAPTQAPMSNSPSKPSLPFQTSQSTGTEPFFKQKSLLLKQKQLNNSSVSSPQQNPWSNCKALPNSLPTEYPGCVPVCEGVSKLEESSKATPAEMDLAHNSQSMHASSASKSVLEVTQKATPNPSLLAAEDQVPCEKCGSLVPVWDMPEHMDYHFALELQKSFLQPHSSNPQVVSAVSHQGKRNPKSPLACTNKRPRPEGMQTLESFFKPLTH

Biological target: DNA polymerase eta (Homo sapiens) (UniProt Q9Y253)
Test: qHTS for Inhibitors of Polymerase Eta
Conditions: recombinant Pol eta, fluorescent DNA replication assay; at 114 µM (top of the series)
% is set by controls: 0 for no effect and ±100 for the full control effect.

Row | SMILES | activity change, negative = inhibition
1 | CCC(=O)N(c1ccccc1)C1(COC)CCN(CCn2nnn(CC)c2=O)CC1 | inactive: -6.06%
